Key:
[1] = system: A2780Cis (cisplatin-resistant human ovarian cancer); assay: In vitro cytotoxicity, SRB assay, A2780Cis; assay type: cell-based; conditions: Table 5
[2] = system: MV-4-11 (human biphenotypic leukaemia); assay: In vitro cytotoxicity, MTT assay, MV-4-11; assay type: cell-based; conditions: Table 5; selectivity coefficient vs normal BALB/3T3 fibroblasts
[3] = system: NCI-H1581 (human lung cancer); assay: In vitro cytotoxicity, SRB assay, NCI-H1581; conditions: Table 5; selectivity coefficient vs normal BALB/3T3 fibroblasts

For `CC[C@@H](C(=O)[C@@H](C)[C@@H](O)[C@H](C)[C@@H]1O[C@@H]([C@@H](CC)C(=O)O)CC[C@@H]1C)[C@H]1O[C@]2(C=C[C@@H](NC(=O)c3cc(OC)c(OC)c(OC)c3)[C@]3(CC[C@@](C)([C@H]4CC[C@](O)(CC)[C@H](C)O4)O3)O2)[C@H](C)C[C@@H]1C` [FLC-00573-1•Na], the “SI A2780Cis” value ([1]; selectivity coefficient vs normal BALB/3T3 fibroblasts) was 38.7, the IC50 ([1]; read-out: IC50 (nM) A2780Cis, A2780Cis cisplatin-resistant human ovarian cancer cells) was 48.7 nM and the “SI MV4-11” value [2] was 11.9. The “SI NCI-H1581” value [3] was 63.2.

Source: US20240294541A1, “COMPOUNDS CONSTITUTING C20-MODIFIED SALINOMYCIN DERIVATIVES, A METHOD FOR OBTAINING THE SAME, A COMPOSITION CONTAINING THE SAME AND A USE OF SAID COMPOUNDS” (FILECLO SPOLKA Z OGRANICZONA ODPOWIEDZIALNOSCIA, priority 2021, published 2024)
